Target: EGFR on tumor endothelial cells (tumor EC) isolated from xenografts in nude mice (mouse) (UniProt Q01279)
Assay: cell-based or functional assay

- cell proliferation (MTT assay) of tumor EC at 20 ng/ml EGF: 2.5 fold
Substance: EGF (R&D Systems) (ligand)
